{"sequences": {"note": "Protein sequences, listed by entry. Tags and fused reporters are not part of them.", "UniProt Q05941, whole entry": "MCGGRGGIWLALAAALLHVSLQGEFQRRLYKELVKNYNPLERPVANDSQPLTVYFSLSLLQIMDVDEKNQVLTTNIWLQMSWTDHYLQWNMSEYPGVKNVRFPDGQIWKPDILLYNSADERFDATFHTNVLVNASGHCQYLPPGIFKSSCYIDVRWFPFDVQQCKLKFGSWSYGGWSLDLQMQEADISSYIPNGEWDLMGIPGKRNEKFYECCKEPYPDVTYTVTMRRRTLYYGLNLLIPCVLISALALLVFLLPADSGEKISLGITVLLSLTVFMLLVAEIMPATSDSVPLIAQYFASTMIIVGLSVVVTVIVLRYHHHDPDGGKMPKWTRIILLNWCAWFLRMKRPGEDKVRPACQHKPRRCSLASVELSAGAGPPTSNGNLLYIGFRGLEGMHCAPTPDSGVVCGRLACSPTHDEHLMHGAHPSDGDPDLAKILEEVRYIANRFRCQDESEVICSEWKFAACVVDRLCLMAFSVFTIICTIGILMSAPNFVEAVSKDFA"}, "source": "ChEMBL document CHEMBL2151039", "about": "“Discovery and development of α7 nicotinic acetylcholine receptor modulators” (J Med Chem, 2011)", "target": "Neuronal acetylcholine receptor subunit alpha-7 (Rattus norvegicus, UniProt Q05941)", "assay": "Binding affinity to rat alpha7 nAchR"}
{"molecule": "O=C(Oc1ccc(Br)cc1)N1CCN2CCC1CC2", "note": "[SSR180711]", "values": [{"measurement": "Ki", "value": 0.022, "unit": "µM"}]}
